Data published in patent publication US20100093645A1, “SMAC Peptidomimetics and the Uses Thereof” (priority 2004, published 2010).
Values joined by “and” are separate entries in the source; they are usually repeats but may differ in a detail not shown here. Identical values can stand only once.

By UniProt entry, the sequences of proteins in these tests, tags left out. Residues count along the entry.
UniProt P98170, 241-356: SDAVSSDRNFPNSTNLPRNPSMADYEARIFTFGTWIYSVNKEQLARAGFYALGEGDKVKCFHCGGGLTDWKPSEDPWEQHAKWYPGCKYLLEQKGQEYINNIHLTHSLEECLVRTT

Biological target: human XIAP-BIR3 protein (residues 241-356) (Homo sapiens, UniProt P98170)
Experiment: biochemical

| SMILES | Ki |
| --- | --- |
| CC(C)[C@H](NC(=O)[C@H](C)N)C(=O)N1CCC[C@H]1C(=O)NCC(c1ccccc1)c1ccccc1 [CJ-459] | 1.21 µM |
| CC(C)[C@H](NC(=O)[C@H](C)N)C(=O)N1CCC[C@H]1C(=O)NC(c1ccccc1)c1ccccc1 [Compound 11] | 0.05 µM and 0.096 µM |
